Source: ChEMBL document CHEMBL1137161, “Pharmacological evaluation of selected arylpiperazines with atypical antipsychotic potential” (Bioorg Med Chem Lett, 2004)

Sequences of proteins named here, by UniProt entry; tags and fusion partners are left off.
UniProt P21728, whole entry: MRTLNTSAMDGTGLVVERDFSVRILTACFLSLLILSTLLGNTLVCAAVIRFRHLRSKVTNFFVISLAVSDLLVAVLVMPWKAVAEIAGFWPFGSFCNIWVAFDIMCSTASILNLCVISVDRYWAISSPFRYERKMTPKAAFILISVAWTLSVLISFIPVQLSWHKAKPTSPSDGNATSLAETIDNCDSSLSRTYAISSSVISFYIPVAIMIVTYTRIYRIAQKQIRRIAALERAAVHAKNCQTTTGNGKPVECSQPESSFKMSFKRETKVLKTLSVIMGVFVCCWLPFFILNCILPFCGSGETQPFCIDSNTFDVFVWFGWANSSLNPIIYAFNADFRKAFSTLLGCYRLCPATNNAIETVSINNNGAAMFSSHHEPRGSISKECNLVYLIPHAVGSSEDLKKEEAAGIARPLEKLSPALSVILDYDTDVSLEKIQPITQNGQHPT

Target: D(1A) dopamine receptor (Homo sapiens, UniProt P21728)

| Structure (SMILES) | Ki [µM] |
| --- | --- |
| Cc1cccc(N2CCN(CCc3ccc4nn[nH]c4c3)CC2)c1C | 4.68 |
| c1ccc2c(N3CCN(CCc4ccc5[nH]nnc5c4)CC3)cccc2c1 | 5.75 |
